In ChEMBL document CHEMBL3351541, “Synthesis and analysis of potential α1,3-fucosyltransferase inhibitors” (Bioorg Med Chem, 2014):

Target: T1, 4-galactosyl-N-acetylglucosaminide 3-alpha-L-fucosyltransferase 9 (Homo sapiens) (UniProt Q9Y231)
T1 sequence (whole entry): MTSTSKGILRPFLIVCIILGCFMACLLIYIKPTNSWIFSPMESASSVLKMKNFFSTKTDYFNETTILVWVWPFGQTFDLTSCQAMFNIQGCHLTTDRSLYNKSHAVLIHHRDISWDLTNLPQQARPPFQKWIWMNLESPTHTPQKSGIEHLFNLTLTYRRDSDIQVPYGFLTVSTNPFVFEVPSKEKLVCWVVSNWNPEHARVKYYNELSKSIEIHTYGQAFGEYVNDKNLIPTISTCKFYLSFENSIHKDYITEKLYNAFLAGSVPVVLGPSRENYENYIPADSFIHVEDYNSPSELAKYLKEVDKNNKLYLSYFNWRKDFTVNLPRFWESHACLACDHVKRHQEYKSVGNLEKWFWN
Experiment: Inhibition of human recombinant alpha1,3-fucosyltransferase 9 using GDP-[14C]-fucose preincubated for 30 mins by liquid scintillation counting
Parameters: concentration or dose not given beside the values

inhibition: < 75%
Structure (SMILES): Nc1nc2c(ncn2[C@@H]2O[C@H](COP(=O)(O)OP(=O)(O)O)[C@@H](O)[C@H]2O)c(=O)[nH]1
